Assay results published in article PMC10349104.

Experiments:
Test in all cases: SPR
[1] = biological target: EVA-A(1-98) (A. americanum)
[2] = biological target: EVA-A(C8) (A. americanum)
[3] = biological target: EVA-A(L39P) (A. americanum)
[4] = biological target: EVA-A(L39P) (Amblyomma americanum)
[5] = biological target: EVA-A(Y44A) (Amblyomma americanum)
[6] = biological target: EVA-A(Y44A) (A. americanum)

| Substance | koff [1] | kon [1] | koff [2] | kon [2] | pKd [3] | koff [3] | kon [3] | pKd [4] | koff [4] | kon [4] | koff [5] | kon [5] | pKd [6] | koff [6] | kon [6] | pKd [5] |
| --- | --- | --- | --- | --- | --- | --- | --- | --- | --- | --- | --- | --- | --- | --- | --- | --- |
| CCL7 (from UniProt P80098 24-99) (ligand) | 0.00179 s⁻¹ | 31000 M⁻¹ s⁻¹ | 0.166 s⁻¹ | 177000 M⁻¹ s⁻¹ | > 10.00 | < 0.0001 s⁻¹ | 1.05e+06 M⁻¹ s⁻¹ | 10.14 and 10.24 | 5.95e-05 s⁻¹ and 6.13e-05 s⁻¹ and 7.32e-05 s⁻¹ | 821000 M⁻¹ s⁻¹ and 1.07e+06 M⁻¹ s⁻¹ and 1.26e+06 M⁻¹ s⁻¹ | 0.00186 s⁻¹ and 0.0018 s⁻¹ and 0.00229 s⁻¹ | 403000 M⁻¹ s⁻¹ and 333000 M⁻¹ s⁻¹ and 520000 M⁻¹ s⁻¹ | 8.32 | 0.00199 s⁻¹ | 419000 M⁻¹ s⁻¹ |  |
| CCL7(Y13A) (from UniProt P80098 24-99) (ligand) |  |  |  |  | > 10.00 | < 0.0001 s⁻¹ | 685000 M⁻¹ s⁻¹ | 10.47 and 10.08 and 10.89 |  | 662000 M⁻¹ s⁻¹ and 703000 M⁻¹ s⁻¹ and 689000 M⁻¹ s⁻¹ | 0.00833 s⁻¹ and 0.00894 s⁻¹ and 0.00913 s⁻¹ | 428000 M⁻¹ s⁻¹ and 406000 M⁻¹ s⁻¹ and 490000 M⁻¹ s⁻¹ | 7.70 | 0.0088 s⁻¹ | 441000 M⁻¹ s⁻¹ | 7.71 and 7.66 and 7.73 |

pKd: −log10 of the molar value. Several values for one entry are separate records, joined by “and”; a condition that tells them apart may be missing. Identical values can stand only once.
